36 molecules from PubChem BioAssay AID2549 (National Center for Advancing Translational Sciences (NCATS), 2010) can be followed below.

The chains behind the UniProt entries cited, without tags or fusion partners.
UniProt P46063, whole entry: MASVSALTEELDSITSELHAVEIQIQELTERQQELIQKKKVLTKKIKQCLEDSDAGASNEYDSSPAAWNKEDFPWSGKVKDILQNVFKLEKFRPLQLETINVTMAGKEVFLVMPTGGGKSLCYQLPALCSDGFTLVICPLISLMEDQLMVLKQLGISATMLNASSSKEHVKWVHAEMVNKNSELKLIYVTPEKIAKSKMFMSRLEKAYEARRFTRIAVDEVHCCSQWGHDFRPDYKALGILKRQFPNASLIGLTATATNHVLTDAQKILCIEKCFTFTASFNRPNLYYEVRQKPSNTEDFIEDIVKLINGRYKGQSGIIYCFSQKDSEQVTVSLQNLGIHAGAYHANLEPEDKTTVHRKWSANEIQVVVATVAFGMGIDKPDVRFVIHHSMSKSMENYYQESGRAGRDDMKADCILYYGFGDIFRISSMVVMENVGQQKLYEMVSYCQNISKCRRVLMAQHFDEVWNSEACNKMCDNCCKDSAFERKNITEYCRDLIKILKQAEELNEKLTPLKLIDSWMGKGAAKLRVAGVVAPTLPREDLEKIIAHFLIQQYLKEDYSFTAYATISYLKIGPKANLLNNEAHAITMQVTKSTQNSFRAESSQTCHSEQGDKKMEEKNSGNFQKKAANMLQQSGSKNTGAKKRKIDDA

This is a selection; strong and weak results do not stand in their true shares. Some structures show a salt or complex split into parts, the way the source records it. Active and inactive are the calls of the source. Calls follow the shape of the dose curve; as a rule, active = well fitted inhibition curve with a large enough effect; inconclusive = small, poorly fitted or top-dose-only effect; inactive = flat fitted curve, though single readings scatter.

This experiment concerns the target ATP-dependent DNA helicase Q1 (Homo sapiens) (UniProt P46063). In words: qHTS Assay for Inhibitors of RecQ-Like Dna Helicase 1 (RECQ1). Also: nearly all actives have a fitted effect of over 30% in size. Particulars: RECQ1 DNA unwinding, red fluorescence kinetic read; activity, negative = inhibition: at 57.3 µM (top of the series). The source says:
Survival of cells and the faithful propagation of the genome depend on elaborate mechanisms of detecting and repairing DNA damage. Treatment of advanced cancer relies on radiation therapy or chemotherapy, which kill cancer cells by causing extensive DNA damage. It is often found, that cancer cells develop resistance to therapy through enhanced activity of DNA repair functions; this has led to an increased interest in developing drugs that interfere with DNA repair, which could sensitize cancer cells to conventional therapy.
This validation qHTS assay pertains to human RECQ1, which is important in resolving abnormal DNA structures formed during replication or homologous recombination. Shutting down the expression of RECQ1 leads to chromosomal instability and higher radiation sensitivity in cultured cells.
The validation assay was a fluorescence quenching based kinetic qHTS for RECQ1 Helicase DNA unwinding. The activity was measured as ATP-dependent separation of a 20-bp DNA duplex extended by 30-nt single-stranded tails (forked duplex). The forked DNA substrate was tagged with rhodamine fluorophore (carboxytetramethyl rhodamine, TAMRA) and BHQ-2 (Black Hole Quencher 2) dark quencher. Strand separation results in an increase in the fluorescence of TAMRA (excitation 525 nm, emission 598 nm). This substrate construct operates in a red-shifted region where very few compound library members have been noted to fluoresce (PubChem AIDs 593 and 594). An additional feature of the assay is the inclusion of 2.5 ug/ml poly (dIdC), to reduce interference by compounds such as DNA intercalators, a major source of false inhibitors.
Opher Gileadi, Structural Genomics Consortium, University of Oxford
Screening Center PI: Austin, C.P.
Screening Center: NIH Chemical Genomics Center [NCGC]
Three uL of reaction buffer (25 mM Tris-HCl (pH 8.0), 5 mM NaCl, 2 mM MgCl2, 1mM DTT, 0.01% Tween- 20, and 2.5 ug/ml poly(dI-dC), including enzyme (50 nM RECQ1T1), were dispensed into a 1536-well Greiner black assay plate via solenoid-valve based nanoliter dispensers. Compounds (23 nl each in columns 5-48) and control (23 nl each in column 2 as dose-response) were transferred via a Kalypsys pintool equipped with a 1536-pin array. The plates were incubated for 15 min at room temperature, and then 1 ul of substrates (200 nM DNA and 2 mM ATP, final concentrations) was added to start the reaction. The plate was transferred into a ViewLux high-throughput CCD imager where the reaction progress was measured in a discontinuous kinetic mode (two reads spaced 2 hours apart, with intermediate room temperature incubation of the covered assay plate) by using standard red-fluorescence optics (excitation filter 525 nm, emission filter 598 nm). Enzyme-free and vehicle (DMSO) controls were included for signal normalization.
A general note: In qHTS, concentration-response curves come from the screen itself.
With `Fc1ccccc1NC1CCN(Cc2ccccc2)CC1`, the activity, negative = inhibition is inactive: -10.8%.

On to `CCN1CCC(Nc2cccc(F)c2)CC1`, for which the activity, negative = inhibition was inactive: -16%.

Take `CN(C)c1ccc(C(=O)NCC2(N3CCCCC3)CCCCC2)cc1`: the activity, negative = inhibition is inactive: -1.94%.

For `CCOc1ncccc1C(=O)NCC1(N2CCOCC2)CCCCC1`, the activity, negative = inhibition result is “inactive”.

Take `CC(C)(C)OC(=O)N1CCC(Nc2ccccc2)CC1`: the activity, negative = inhibition entry is “inactive”.

`CCC(CO)(C(=O)OC1CN2CCC1CC2)c1ccccc1` (stereo unspecified): the activity, negative = inhibition is inactive: -2.76%.

For the molecule `COc1cc(OC)cc(C(=O)NCC2(N3CCOCC3)CCCCC2)c1`, the activity, negative = inhibition entry was “inactive”.

Regarding `CCCOc1ccc(C)cc1CN(CCCl)CCCl`, the activity, negative = inhibition was inactive: 5.87%.

In the case of `COc1ccc(C(=O)NCC2(N3CCOCC3)CCCCC2)cc1OC`, the activity, negative = inhibition entry is “inactive”.

For the molecule `N/C(=N\O)c1c(N)no[n+]1[O-]`, the activity, negative = inhibition is inactive: -0.379%.

As for `O=C(O)c1cccc(Nc2c([N+](=O)[O-])cc([N+](=O)[O-])cc2[N+](=O)[O-])c1`, the activity, negative = inhibition entry was “inactive”.

Regarding `O=C(OC1CN2CCC1CC2)C1c2ccccc2C=Cc2ccccc21` (stereo unspecified), the activity, negative = inhibition was inactive: -2.51%.

For `N#Cc1ccc(C(=O)NCC2(N3CCCCC3)CCCCC2)cc1`, the activity, negative = inhibition was inactive: -12.2%.

In the case of `CCOC(=O)C(CC)C1=NC(C)(C)Cc2ccccc21.O=[N+]([O-])c1cc([N+](=O)[O-])c(O)c([N+](=O)[O-])c1` (stereo unspecified), the activity, negative = inhibition result was “inactive”.

With `c1ccc(CN2CCC(Nc3ccccc3)CC2)cc1`, the activity, negative = inhibition result is “inactive”.

With `ClCCOP(OCCCl)OCCCl`, the activity, negative = inhibition was inactive: -0.523%.

For the molecule `O=C(NCC1(N2CCCCC2)CCCCC1)c1cccc([N+](=O)[O-])c1`, the activity, negative = inhibition result was “inactive”.

With `N#CC1(Nc2ccccc2)CCN(CCc2ccccc2)CC1`, the activity, negative = inhibition is inactive: -1.59%.

For `O=[N+]([O-])c1cc([N+](=O)[O-])c(NCC2CCS(=O)(=O)C2)c([N+](=O)[O-])c1` (stereo unspecified), the activity, negative = inhibition is inactive: -8.23%.

Turning to `CN1CCN(CCOC(=O)C(O)(c2ccccc2)c2ccccc2)CC1`, the activity, negative = inhibition was inactive: -0.114%.

As for `COc1ccc(NC2CCN(C(=O)OC(C)(C)C)CC2)cc1`, the activity, negative = inhibition was inactive: -4.95%.

For `O=C(NCC1(N2CCOCC2)CCCCC1)c1cc(=O)[nH]c2ccccc12`, the activity, negative = inhibition result was “inactive”.

`CN(C)c1cccc(C(=O)NCC2(N3CCCCC3)CCCCC2)c1`: the activity, negative = inhibition is inactive: -0.464%.

As to `COc1ccc(CN(CCCl)CCCl)cc1Cl`, the activity, negative = inhibition is inactive: -9.89%.

As for `CC(C)c1ccc(NC2CCN(C(=O)OC(C)(C)C)CC2)cc1`, the activity, negative = inhibition was inactive: -20%.

`CCOP(=O)(Cl)Cl`: the activity, negative = inhibition was inactive: -2.87%.

In the case of `COc1ccc2c(c1O)-c1c(O)c(OC)cc3c1[C@H](C2)[N+](C)(C)CC3.O=[N+]([O-])c1cc([N+](=O)[O-])c([O-])c([N+](=O)[O-])c1[O-]`, the activity, negative = inhibition result is “inactive”.

Turning to `O=C(OC1CN2CCC1CC2)c1ccc([N+](=O)[O-])cc1` (stereo unspecified), the activity, negative = inhibition was inactive: 8.82%.

`COc1ccc(C(=O)NCC2(N3CCCCC3)CCCCC2)c(OC)c1OC`: the activity, negative = inhibition entry was “inactive”.

For `O=C(NCC1(N2CCOCC2)CCCCC1)c1cc2ccccc2o1`, the activity, negative = inhibition entry is “inactive”.

In the case of `CCOC(=O)N1CCC(Nc2ccc(OC)cc2)CC1`, the activity, negative = inhibition result is “inactive”.

For `O=C(OC1CN2CCC1CC2)C1c2ccccc2Oc2ccccc21` (stereo unspecified), the activity, negative = inhibition was inactive: -4.02%.

Consider `N#CC1(Nc2ccccc2)CCN(Cc2ccccc2)CC1`, for which the activity, negative = inhibition was inactive: -5.12%.

As to `CCOc1ccc(C)cc1CN(CCCl)CCCl`, the activity, negative = inhibition is inactive: 9.15%.

On to `COc1ccc(NC2CCN(CCc3ccccc3)CC2)c(OC)c1`, for which the activity, negative = inhibition was inactive: -3.4%.

As to `Cc1ccc(OCC(C)C)c(CN(CCCl)CCCl)c1`, the activity, negative = inhibition is inactive: -1.23%.
